Results: US20150087613A1, “Inhibition of Opioid Antinociceptive Tolerance and Withdrawal in Nociceptive Pain Therapy” (Saint Louis University, priority 2013, published 2015)

Target: T1, mA3AR (Mus musculus, UniProt Q61618)
T1 construct: expressed in transfected cells
T1 sequence (Q61618 1-319): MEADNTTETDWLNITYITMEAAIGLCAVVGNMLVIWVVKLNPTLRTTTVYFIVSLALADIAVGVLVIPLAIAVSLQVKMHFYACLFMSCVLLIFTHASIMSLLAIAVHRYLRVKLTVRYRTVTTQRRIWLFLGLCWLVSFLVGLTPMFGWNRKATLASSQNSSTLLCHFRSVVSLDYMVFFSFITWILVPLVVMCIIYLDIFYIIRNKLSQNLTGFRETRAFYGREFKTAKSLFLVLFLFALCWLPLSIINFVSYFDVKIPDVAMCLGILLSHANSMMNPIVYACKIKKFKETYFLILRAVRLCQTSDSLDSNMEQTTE
Test: cAMP assay, inhibition of forskolin-stimulated cAMP in mA3AR-transfected HEK cells
Type: cell-based
Settings: HEK293; read-out: % efficacy, A3

O[C@@H]1[C@H](O)[C@@H]2C[C@@H]2[C@H]1n1cnc2c(NCCc3ccccc3)nc(C#Cc3ccccc3)nc21 [Compound 14]
Emax: 14.3 ± 6.1%
